{
  "source": "paper PMC4332148",
  "about": "(Molecular Systems Biology, 2015)",
  "biological_target": "T1, standard 20S proteasome (human (endogenous in HEK cells), UniProt P60900 1-246; P25787 1-234; P25789 1-261; O14818 1-248; P28066 1-241; P25786 …)",
  "T1 construct": "20S proteasome subunit α1; 20S proteasome subunit α2; 20S proteasome subunit α3; 20S proteasome subunit α4; 20S proteasome subunit α5; 20S proteasome subunit α6; 20S proteasome subunit α7; 20S proteasome standard catalytic subunit β1; 20S proteasome standard catalytic subunit β2; 20S proteasome subunit β3; 20S proteasome subunit β4; 20S proteasome standard catalytic subunit β5; 20S proteasome …",
  "assay": "affinity purification with mass spectrometry; proteasomes affinity-purified (MCP21) from formaldehyde cross-linked HEK EBNA cells, untransfected (sP20S) or transfected with β5i, β1i and β2i (iP20S), with β5i alone or with β1i and β5i; nano-LC-MS/MS, TOP3 label-free; regulator PAI normalized by the PAI of the ncP20S, n = 4",
  "conditions": "partners not purified",
  "data": [
    {"binder": "PI31 (natural protein, human (endogenous in human cell lines), UniProt Q92530 1-271, looked up, also called PI31 proteasome regulator; source: endogenous, lysates of formaldehyde cross-linked human cell lines (the nine lines, HEK EBNA, HeLa with IFN-γ)) MAGLEVLFASAAPAITCRQDALVCFLHWEVVTHGYFGLGVGDQPGPNDKKSELLPAGWNNNKDLYVLRYEYKDGSRKLLVKAITVESSMILNVLEYGSQQVADLTLNLDDYIDAEHLGDFHRTYKNSEELRSRIVSGIITPIHEQWEKANVSSPHREFPPATAREVDPLRIPPHHPHTSRQPPWCDPLGPFVVGGEDLDPFGPRRGGMIVDPLRSGFPRALIDPSSGLPNRLPPGAVPPGARFDPFGPIGTSPPGPNPDHLPPPGYDDMYL", "values": [
      {"measurement": "fold of the relative abundance in the immunoprecipitate, against iP20S", "result": "> 8", "unit": "fold"}
    ]}
  ]
}
